For eight substances, Kd and stoichiometry N results are on record in publication PMC3326523, “Histone Recognition and Large-Scale Structural Analysis of the Human Bromodomain Family” (Cell, 2012).

Test [1] has as its target BRDT(1), first bromodomain of BRDT (human) (UniProt Q58F21). Description: ITC; peptide (mM stock) titrated into bromodomain (about 50 μM), by the concentrations in the tables; 10 or 15°C, 50 mM HEPES pH 7.5, 150 mM NaCl; single binding site model. For orientation: In ITC the heat of successive injections is recorded.
The target in test [2] is BRD2(2), second bromodomain of BRD2 (human) (UniProt P25440). Put plainly: ITC; as a1; rows with N of about 0.5 or 0.25: two or more bromodomains on one peptide, apparent binding constants, events not deconvoluted.
Test [3] concerns the target BRD2(1), first bromodomain of BRD2 (human) (UniProt P25440). The test is described as above.
Test [4] shares this target. Description: ITC; peptide (mM stock) titrated into bromodomain (about 50 μM), by the concentrations in the tables; 10 or 15°C, 50 mM HEPES pH 7.5, 150 mM NaCl; single binding site model.
For test [5], the target named is CREBBP bromodomain (human) (UniProt Q92793). Described as above.
The target of test [6] is TAF1(2), second bromodomain of TAF1 (human) (UniProt P21675). The description is as above.
For test [7], the target named is BRD4(2), second bromodomain of BRD4 (human) (UniProt O60885). The description is as above.
Test [8] deals with BRD2(2), second bromodomain of BRD2 (human) (UniProt P25440). The test is described as above.
The target in test [9] is Histone H4 K12ac peptide (Homo sapiens) (UniProt P62805). Conditions: cited from earlier work.
For test [10], the target named is Histone H4 K5acK12ac peptide (Homo sapiens) (UniProt P62805). As to conditions: cited from earlier work.

H4K12 peptide GKGLGKacGGAKRY: in test [1], the Kd is 150 µM and the stoichiometry N (as a rule, the number of molecules, sites or subunits per partner or assembly) was 0.96.

H4K12/16/20 peptide GKacGGAKacRHRKacV: the Kd in test [2] stood at 41 µM; in [3], 27.9 µM. The stoichiometry N in test [2] and in test [3] was 0.5 in each case.

Consider H4K8/12 peptide GKacGLGKacGGAKR, for which, in test [4], the Kd was determined as 65.8 µM and the stoichiometry N was 1. In test [2], the Kd stood at 55.9 µM and the stoichiometry N turned out to be 0.51.

H3K14 peptide KSTGGKacAPRKQY: the stoichiometry N in test [5], in test [6] and in test [7] was 1.03 each time. Besides, the Kd in test [7] was determined as 260 µM.

In test [8], H4K5/K8 peptide SGRGKacGGKacGLGY showed a Kd of 32.8 µM and a stoichiometry N of 0.96. In test [4], the Kd came out at 13.5 µM and the stoichiometry N was determined as 0.99.

H4K12/16 peptide GKacGGAKacRHRKV: in test [8], the Kd was found to be 27.2 µM and the stoichiometry N was found to be 1. Besides, in test [4], the Kd stood at 29.4 µM and the stoichiometry N is 1.

For BRD2 bromodomain (from UniProt P25440), the values for the Kd in test [9] and in test [10] were 2900 µM and 360 µM, respectively.

As for “H4K5/8/12/16 peptide YSGRGKacGGKacGLGKacGGAKacRHRK”, the Kd turned out to be 23 µM in test [1], 34.7 µM in test [2] and 3.7 µM in [3]. Moreover, the stoichiometry N in test [1] worked out at 2.04; in test [2] it was 0.5; in test [3] it was 0.53.
